Measured values as given in patent publication US20230391826A1 (SANFORD BURNHAM PREBYS MEDICAL DISCOVERY INSTITUTE, published 2023).
Like-named read-outs stand apart in the source and are kept apart here.

How the values were obtained:
[1] = biological target: T1, EphA2 extracellular domain fused to the Fc portion of an antibody (EphA2-Fc); assay: ELISA, inhibition of ephrinA5-AP binding to immobilized EphA2-Fc
T1 construct: extracellular domain; Immobilized on the ELISA wells; also called immobilized EphA2

[2] = biological target: T1, EphA2 extracellular domain fused to the …; assay: as above; remark: listed apart in the source

IC50 [1]: 27 nM
IC50 [2]: 27 nM
B1: CcamGA-WLA-YRPK-bio (peptide)
peptide: CGAWLAYPDSVPYRPK
modifications: N-terminal carbamidomethyl-cysteine (Ccam); biotin on the C-terminal Lys
notes: also called monomer (10); monomeric peptide (10)
